These results are taken from PubChem BioAssay AID2313 (Broad Institute, 2010).

The list shows a part of the results, in another mix than the full data. Calls of active or inactive are those of the source.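 Rule for the calls: active = mean inhibition across valid replicates above about 65% (limit read from the data); inconclusive = mean under the limit, yet half or more replicates past it; inactive = the rest.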

The term inhibition denotes the drop in the measured response relative to a control, in per cent.

A short description of this test: Hedgehog pathway signaling inhibitors, primary screen, luminescence, Shh-LIGHT2 cells, Gli-luciferase (AID 2313).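 Note: pathway switched on by Shh-conditioned medium diluted 1 in 25 in low serum.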 Conditions: Shh-LIGHT2 Gli-luciferase reporter, 30 h; active compounds read high.
Take `CN(C(=O)Cc1ccc(Cl)c(Cl)c1)[C@H]1CCCC[C@@H]1N1CCCC1`: the inhibition is active: 70.2%.
